Source: ChEMBL document CHEMBL1136784, “Synthesis and biological evaluation of 14-alkoxymorphinans. 18. N-substituted 14-phenylpropyloxymorphinan-6-ones with unanticipated agonist properties: extending the scope of common structure-activity relationships” (J Med Chem, 2003)

Experiment: Selectivity ratio was determined
Parameters: reference not given here

Question: For O=C1CC[C@@]2(OCCCc3ccccc3)[C@H]3Cc4ccc(O)c5c4[C@@]2(CCN3CCc2ccccc2)[C@H]1O5, which Ratio is on record?
Answer: Its Ratio is 0.55 and 1.14.

“And” between values parts separate entries of the source, which are not always exact repeats. Identical values can stand only once.
